Results published in ChEMBL document CHEMBL1125532, “Synthesis and cholinergic properties of N-aryl-2-[[[5-[(dimethylamino)methyl]-2-furanyl]methyl]thio]ethylamino analogs of ranitidine” (J Med Chem, 1992).
pIC50: −log10 of the molar value.

Amino acid sequences for entries named in this document (tags omitted).
UniProt P06276, whole entry: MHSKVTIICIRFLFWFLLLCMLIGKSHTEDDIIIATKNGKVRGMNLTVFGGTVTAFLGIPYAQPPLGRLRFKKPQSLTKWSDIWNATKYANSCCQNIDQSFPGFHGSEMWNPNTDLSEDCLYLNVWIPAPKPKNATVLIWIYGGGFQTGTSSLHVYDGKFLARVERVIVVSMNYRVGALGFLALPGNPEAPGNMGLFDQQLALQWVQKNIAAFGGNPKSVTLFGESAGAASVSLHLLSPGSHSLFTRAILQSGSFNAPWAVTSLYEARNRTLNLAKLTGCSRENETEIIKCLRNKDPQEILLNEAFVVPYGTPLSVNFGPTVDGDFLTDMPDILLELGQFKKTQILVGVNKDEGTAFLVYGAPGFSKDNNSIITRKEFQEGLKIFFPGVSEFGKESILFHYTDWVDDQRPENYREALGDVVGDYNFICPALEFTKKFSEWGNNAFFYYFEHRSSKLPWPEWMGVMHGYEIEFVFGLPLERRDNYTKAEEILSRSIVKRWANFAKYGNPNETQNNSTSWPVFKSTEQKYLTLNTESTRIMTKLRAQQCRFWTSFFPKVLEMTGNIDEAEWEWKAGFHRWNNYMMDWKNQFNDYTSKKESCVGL

Target: Cholinesterase (Homo sapiens, UniProt P06276)
Experiment: In vitro Butyrylcholinesterase inhibitory activity to determine its ability to reverse the cholinergic deficit characteristic of AD

CN(C)Cc1ccc(CSCCNc2nnccc2[N+](=O)[O-])o1 gave a pIC50 of 5.00.
